Experimental data as given in the CATMoS acute toxicity set (Mansouri et al. 2021).

Assay: rat acute oral toxicity
Settings: in vivo

| Compound | LD50 [mg/kg] |
| --- | --- |
| CC(C)OP(=S)(OC(C)C)SCCNS(=O)(=O)c1ccccc1 | 270 |
| CCCCO[PH](=O)OCCCC | 3200 |
| Cc1cc([N+](=O)[O-])cc([N+](=O)[O-])c1O | 7 |
| CCC(C)(C)OO | 483 |

Assay: GHS categories as the set defines them, by LD50: 1 up to 5, 2 up to 50, 3 up to 300, 4 up to 2000, 5 above 2000 mg/kg
Settings: rat; in vivo; po

| Compound | GHS category |
| --- | --- |
| COP(=O)(OC)c1ccccc1 | 4 |
| CC1(C)COP(=S)(OP2(=S)OCC(C)(C)CO2)OC1 | 5 |
| CN(SC(Cl)(Cl)C(Cl)Cl)C(=O)Oc1cccc2c1OC(C)(C)C2 | 3 |
| CC(C)C(=O)OOC(=O)C(C)C | 5 |
| O=P(Cl)(Oc1ccccc1)Oc1ccccc1 | 4 |
